Assays:
E. coli cells [1] = assay: NPN fluorescence assay (outer-membrane permeabilization); format: cell-based; conditions: NPN 10 µM, peptide 1-16 µM, 10 mM sodium phosphate buffer, OD600~0.5, excitation 350 nm, emission 390-450 nm; Figure 1B
Procedure: Peptides induced in NPN fluorescence experiments were measured to define the extent of outer-membrane permeabilization of E. coli cells. NPN assay was carried out in a Cary Eclipse fluorescence spectrophotometer (Varian, Palo Alto, CA, USA) by using a quartz cuvette of 0.1 cm path-length. Mid-log-phase E. coli cells in LB media were centrifuged at 5000 rpm for 10 min and resuspended in 10 mM sodium phosphate buffer at an OD600~0.5. NPN (10 µM) fluorescence, excitation 350 nm, emission 390–450 nm, in bacterial cell suspension was obtained in the absence of peptide and in the presence of various concentrations, ranging from 1–16 µM, of peptides. The results were expressed as ΔF vs. peptide concentration in which the basal fluorescence was subtracted from the maximum intensity recorded for each peptide concentration.

The chains behind the UniProt entries cited, without tags or fusion partners. Residues count along the entry.
UniProt P0ADV1, 28-159: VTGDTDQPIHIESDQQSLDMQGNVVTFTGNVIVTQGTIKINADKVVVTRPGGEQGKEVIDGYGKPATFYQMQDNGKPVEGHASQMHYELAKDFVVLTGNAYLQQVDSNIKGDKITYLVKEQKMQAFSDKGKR

[2] = tested on: Acenobacter baumannii ATCC BAA-1798; format: cell-based, A. baumannii
Text: (§1) Chemically synthesized PM15, PM15Y and PM15A peptides were obtained from GLBiochem^TM (Shanghai, China). Molecular weight of the peptides was confirmed by mass spectrometry. Bacterial strains were obtained from the American Type Culture Collection (ATCC, Manassas, VA, USA). Mueller–Hinton (MH) broth was purchased from Sigma-Aldrich^TM (Saint Louis, MO, USA) and Millipore-Sigma^TM (Saint Louis, MO, USA). 1-N-phenylnaphthylamine (NPN) and LPS (E. coli O111:B4) were purchased from Sigma Aldrich^TM.
(§2) Bacterial growth inhibition of PM15, PM15A and PM15Y peptides was estimated against a panel of bacterial strains, namely, E. coli ATCC25922, S. enterica ATCC 14028, K. pneumoniae ATCC 13883, A. baumannii ATCC BAA-1798, S. pyogenes ATCC 19615 and E. faecalis ATCC 29212, by using the broth dilution assay determining minimum inhibitory concentration (MIC). Typically, overnight bacterial cultures were grown to mid-log phase at 37 °C and then diluted in Mueller–Hinton (MH) broth to OD600 ~ 0.002. […] Bacterial inhibition was determined by absorbance of 96-well plates at OD600 nm by using a Cytation spectrophotometer (Agilent, Santa Clara, CA, USA). The minimum peptide concentration showing complete inhibition of bacterial growth was determined as the MIC value.

[3] = ITC of peptide/LPS binding; design: species or system E. coli; conditions: 10 mM sodium phosphate, pH 7.0, 37 °C; for Kd / ΔH: 1 mM peptide into 50 μM E. coli LPS (O111:B4), single site binding model; for TΔS / ΔG: LPS, determined indirectly from thermodynamics equations
Text: as §1
(§3) ITC experiments were conducted by using a MicroCal ITC 200 calorimeter. Samples, LPS and peptides, were prepared in 10 mM sodium phosphate buffer, pH 7.0. LPS (50 µM) was placed in the sample cell, while the syringe contained 1 mM of peptide. In an individual experiment, 2.0 μL of peptide was titrated, with a total of 20 titrations, into the sample cell containing LPS at 37 °C with stirring speed adjusted to 750 rpm. For ITCs of peptides/LptAm, samples were prepared in 50 mM sodium phosphate buffer, 150 mM NaCl, pH 7.0. 25 μM of LptAm was loaded into the sample cell, whereas 250 μM of PM15 and PM15Y was placed in the syringe. ITC titrations were performed with 20 injections of 2 µL of peptide into sample cells at 25 °C with a stirring speed of 750 rpm. ITC data were analyzed by using a single site binding model in MicroCal Origin 5.0 software to obtain the association constant (Ka) and enthalpy change (ΔH). Other binding parameters, namely, dissociation constant (Kd), Gibbs free energy (ΔG) and entropy change (TΔS), were determined indirectly from thermodynamics equations.

LptAm protein of E. coli = molecular target: T1, LptAm protein of E. coli (Escherichia coli, UniProt P0ADV1); assay: ITC of peptide/LptAm binding; conditions: 50 mM sodium phosphate, 150 mM NaCl, pH 7.0, 25 °C
T1 construct: Expression and purification of LptAm protein (residues 28–159), with a six His-tag ([…]) at the C-terminus; made in house; host or cells: E. coli BL21
Procedure: as §3
Expression and purification of LptAm protein (residues 28–159), with a six His-tag (SGRVEHHHHHH) at the C-terminus, was carried out by using a previously established method. Briefly, plasmid DNA coding for LptAm gene was transformed into E. coli BL21 competent cells in LB agar plates containing 100 µg/mL of ampicillin. Protein production from expressing E. coli was induced by 1 mM isopropyl β-d-1-thiogalactopyranoside (IPTG) at an OD600 value of 0.6–0.8 at 18 °C for 18 h. The bacteria cells were centrifuged at 6000 rpm, 4 °C for 15 min and resuspended in a lysis buffer (100 mM HEPES, 500 mM NaCl, 10 mM imidazole, pH 8). Bacterial cells were lysed by sonication on ice at 25 Amp for 1 h, the lysate was centrifuged at 18,000 rpm, 4 °C for 30 min to remove cellular debris. The cell supernatant was applied through Ni-NTA (Qiagen, Germantown, TN, USA) beads thrice before washing it with increasing concentrations of imidazole. […]

E. coli cells [4] = assay: Zeta potential of E. coli cells (surface charge neutralization); format: cell-based; conditions: 10 mM sodium phosphate buffer, pH 7, Figure 1A; for change in zeta potential of E. coli cells, in words: peptide 2-32 μM, three replicates of 100 runs
Procedure: All zeta potential measurements were performed on a Zeta Sizer Nano ZS (Malvern Instruments, Worcestershire, UK) equipped with a 633 nm He laser using zeta cells with gold electrodes. Typically, E. coli cells at a mid-log culture in LB media were harvested by centrifugation at 5000 rpm for 10 min and resuspended in 10 mM sodium phosphate buffer, pH 7. Zeta potential value of the bacterial cell suspension was determined for the free cells and with subsequent additions of peptide (2 μM to 32 μM). For each concentration, 100 runs were carried out and three replicates were executed.

[5] = tested on: representative strains of Gram-negative and Gram-positive bacteria; assay: Bacterial growth inhibition (MIC), panel of strains; format: cell-based; conditions: aged, about 5 years, MH broth
Text: as §1, §2

[6] = tested on: Salmonella enterica ATCC 14028; format: cell-based
Text: as §1, §2

Row | SMILES | NPN fluorescence increase (ΔF), in words (E. coli cells [1]) | MIC [2] | Kd [3] [µM] | ΔH [3] [kcal/mol] | LPS binding, in words [3] | TΔS [3] [kcal/mol] | ΔG [3] [kcal/mol] | ΔH (LptAm protein of E. coli; 250 μM peptide into 25 μM LptAm, single site binding model) [kcal/mol] | LptAm binding, in words (LptAm protein of E. coli) | TΔS (LptAm protein of E. coli; LptAm, determined indirectly from thermodynamics equations) [kcal/mol] | change in zeta potential of E. coli cells, in words (E. coli cells [4]) | surface charge neutralization compared to the other peptides, in words (E. coli cells [4]; at lower doses, 4-16 µM) | bacterial growth inhibition, in words [5] | MIC [6]
1 | CC[C@H](C)[C@H](NC(=O)[C@@H](NC(=O)[C@@H](N)Cc1ccc(O)cc1)[C@@H](C)CC)C(=O)N[C@@H](Cc1ccc(O)cc1)C(=O)N[C@@H](CS)C(=O)N[C@@H](CC(N)=O)C(=O)N[C@@H](CCCNC(=N)N)C(=O)N[C@@H](CCCNC(=N)N)C(=O)N[C@H](C(=O)NCC(=O)N[C@@H](CCCCN)C(=O)N[C@@H](CS)C(=O)N[C@@H](CCC(N)=O)C(=O)N[C@@H](CCCNC(=N)N)C(=O)N[C@@H](CCSC)C(=O)O)[C@@H](C)O [PM15Y] | higher increase in NPN fluorescence compared to the parent PM15 peptide | >16 (>16) µM | 0.28 | -11.79 | relatively high-affinity interactions with LPS compared to the parent peptide PM15 | -2.49 | -9.30 | -11.79 | bind to LptAm with high affinity | -2.49 | increase in zeta potential in a dose-dependent manner | higher surface charge neutralization compared to PM15 and PM15A peptides | able to inhibit growth of all the bacterial strains except for S. enterica | >16(>16) µM
2 | CC[C@H](C)[C@H](NC(=O)[C@H](C)N)C(=O)N[C@H](C(=O)N[C@@H](Cc1ccc(O)cc1)C(=O)N[C@H]1CSSC[C@@H](C(=O)N[C@@H](CCC(N)=O)C(=O)N[C@@H](CCCNC(=N)N)C(=O)N[C@@H](CCSC)C(=O)O)NC(=O)[C@H](CCCCN)NC(=O)CNC(=O)[C@H]([C@@H](C)O)NC(=O)[C@H](CCCNC(=N)N)NC(=O)[C@H](CCCNC(=N)N)NC(=O)[C@H](CC(N)=O)NC1=O)[C@@H](C)CC [PM15A] | higher increase in NPN fluorescence compared to the parent PM15 peptide | >16 (>16) µM | 0.33 | -8.74 | relatively high-affinity interactions with LPS compared to the parent peptide PM15 | 0.47 | -9.21 |  |  |  | increase in zeta potential in a dose-dependent manner |  |  | 

— article PMC10812785, “Structures, Interactions and Activity of the N-Terminal Truncated Variants of Antimicrobial Peptide Thanatin” (Antibiotics, 2024)
